Chains of the proteins cited; added tags and fusions are not shown. Lines headed by an entry give the natural chain unless they say otherwise; changes in a name come on top.
UniProt Q9BWU1: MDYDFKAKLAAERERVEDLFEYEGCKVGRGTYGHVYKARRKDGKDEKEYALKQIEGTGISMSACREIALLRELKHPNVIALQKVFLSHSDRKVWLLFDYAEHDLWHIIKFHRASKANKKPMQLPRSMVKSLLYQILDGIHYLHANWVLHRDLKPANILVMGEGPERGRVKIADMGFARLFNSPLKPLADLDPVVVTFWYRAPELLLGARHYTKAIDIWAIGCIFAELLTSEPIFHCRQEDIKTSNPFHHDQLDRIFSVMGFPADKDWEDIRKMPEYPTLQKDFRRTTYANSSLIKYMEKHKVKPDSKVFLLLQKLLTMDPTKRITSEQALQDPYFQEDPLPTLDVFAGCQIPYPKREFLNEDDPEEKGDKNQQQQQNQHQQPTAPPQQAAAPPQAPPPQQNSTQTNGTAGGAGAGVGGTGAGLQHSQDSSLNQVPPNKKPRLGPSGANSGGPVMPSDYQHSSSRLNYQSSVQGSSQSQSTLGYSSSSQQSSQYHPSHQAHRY

In US9321737B2, “CDK8-CDK19 selective inhibitors and their use in anti-metastatic and chemopreventative methods for cancer” (SENEX BIOTECHNOLOGY INC, priority 2012, dated 2016):

Target: CDK19 (Homo sapiens, UniProt Q9BWU1)
Test: Kd determination, CDK19
Format: binding
Conditions: in duplicate
Protocol: The selectivity of SNX2-1-165 for CDK8 and CDK19 was tested using the services of KinomeScan, a division of Ambit Biosciences, San Diego, Calif., which measured the activity of a single concentration of the compound (2,000 nM, an order of magnitude higher than Kd) to inhibit ATP pocket binding of >450 kinases. (16) The results of this analysis are presented in FIGS. 6A-B in the form of an evolutionary dendrogram of the kinase family, where kinase inhibition is represented by red circles, the size of which represents the magnitude of the inhibition.

**Q.** How did the Kd turn out when `CN1CCN(C(=O)c2ccc3cc(CCNc4ncnc5ccc(C#N)cc45)ccc3c2)CC1` [SNX2-1-165] was run?
**A.** Its Kd is 80 nM.
